System: tissues of hamsters with eye melanoma
Experiment: Distribution of carrier-free lead-203 tris in tissue at various times
Assay type: in vivo, hamster
Procedure: The ^203 Pb-tris as described herein was injected in a relatively large number of mice and hamsters which were tumor bearing animals.
Results from one such group of hamsters are given in Table I showing distribution of the lead-203 tris in percent uptake per gram of tissue at various times.
Distribution of Carrier-Free Lead-203 Tris in Percent Uptake per Gram
of Tissue at Various Times*
*Averages and standard deviations for an average of 8-17 hamsters per tim
group, except * data which represents results from 4 animals.

## Lead-203 tris-hydroxymethyl aminomethane
Time 1, 60 min
  Distribution, Brain: 0.107 Percent Uptake per Gram of Tis
Time 3, 180 min
  Distribution, Brain: 0.067 Percent Uptake per Gram of Tis
Time 6, 360 min
  Distribution, Brain: 0.135 Percent Uptake per Gram of Tis
Time 24, 1440 min
  Distribution, Brain: 0.139 Percent Uptake per Gram of Tis
Time 72, * 4 animals, 4320 min
  Distribution, Brain: 0.067 Percent Uptake per Gram of Tis
Time 144, 8640 min
  Distribution, Brain: 0.109 Percent Uptake per Gram of Tis
Gonads, Time 72, 4320 min
  Distribution, Gonads: 0.135 Percent Uptake per Gram of Tis

— patent US4011307A, “Production of ^203 Pb-tris-hydroxymethyl amino methane” (The United States of America as represented by the United …, priority 1976, dated 1977)
